This experiment deals with T1, human neutrophil elastase (HNE) (Homo sapiens, UniProt P08246).
T1 sequence (P08246 30-267): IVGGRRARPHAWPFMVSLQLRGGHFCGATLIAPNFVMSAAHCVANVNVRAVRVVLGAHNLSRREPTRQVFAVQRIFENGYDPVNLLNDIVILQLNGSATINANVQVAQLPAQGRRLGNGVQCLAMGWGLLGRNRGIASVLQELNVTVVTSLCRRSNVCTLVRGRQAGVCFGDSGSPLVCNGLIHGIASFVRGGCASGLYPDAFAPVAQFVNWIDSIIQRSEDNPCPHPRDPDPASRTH
As to the kind of experiment: Human neutrophil elastase inhibition assay (spectrofluorimetric, MeOSuc-AAPV-AMC substrate).

The structures appear in SMILES notation.

`CC(C)(C)C(=O)Oc1ccc(S(=O)(=O)Nc2ccccc2C(=O)NCC(=O)O)cc1` [Sivelestat, sivelestat, reference compound]: the IC50 is 0.01878 ± 0.00013 µM.

The record behind these values is article PMC9321231.
